{
  "sequences": {"note": "Protein sequences, listed by entry. Tags and fused reporters are not part of them.", "UniProt P14902, whole entry": "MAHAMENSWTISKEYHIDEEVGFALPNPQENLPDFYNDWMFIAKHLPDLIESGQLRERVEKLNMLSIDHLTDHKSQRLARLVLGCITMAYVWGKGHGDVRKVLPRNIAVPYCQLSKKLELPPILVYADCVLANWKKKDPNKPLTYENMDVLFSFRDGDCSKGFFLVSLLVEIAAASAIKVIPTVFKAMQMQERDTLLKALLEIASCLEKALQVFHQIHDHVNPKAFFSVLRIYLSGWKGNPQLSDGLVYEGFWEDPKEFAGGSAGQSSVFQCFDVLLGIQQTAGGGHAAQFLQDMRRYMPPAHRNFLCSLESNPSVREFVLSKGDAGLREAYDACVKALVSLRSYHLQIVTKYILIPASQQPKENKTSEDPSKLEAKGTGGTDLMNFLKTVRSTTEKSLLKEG"},
  "source": "patent US10669273B2",
  "about": "“Use of aza-tryptanthrin derivatives as inhibitors of IDO1 and/or TDO” (Peking University, priority 2016, dated 2020)",
  "biological_target": "IDO-1 (Homo sapiens (Human), UniProt P14902)",
  "test": "Indoleamine-2,3-dioxygenase 1 inhibitory activity (absorbance at 321 nm)",
  "format": "biochemical",
  "details": "read-out: Comparison of inhibitory activity of the IDO1, IC50; Table 1, comparison with tryptanthrins 5a, 5b, 5c, 5i",
  "data": [
    {"smiles": "O=C1c2cc([N+](=O)[O-])ccc2-n2c1nc1ccccc1c2=O", "values": [
      {"measurement": "IC50", "result": "100 to 1000", "unit": "nM"}
    ]},
    {"smiles": "O=C1c2cc(F)ccc2-n2c1nc1ccccc1c2=O", "values": [
      {"measurement": "IC50", "result": "100 to 1000", "unit": "nM"}
    ]}
  ]
}
